These results are taken from PMC6104039 (Nature Communications, 2018).

Structures are written as SMILES.

For data set [1], the target named is T1, CerS1 (Homo sapiens, UniProt P27544).
T1 sequence (P27544 1-350): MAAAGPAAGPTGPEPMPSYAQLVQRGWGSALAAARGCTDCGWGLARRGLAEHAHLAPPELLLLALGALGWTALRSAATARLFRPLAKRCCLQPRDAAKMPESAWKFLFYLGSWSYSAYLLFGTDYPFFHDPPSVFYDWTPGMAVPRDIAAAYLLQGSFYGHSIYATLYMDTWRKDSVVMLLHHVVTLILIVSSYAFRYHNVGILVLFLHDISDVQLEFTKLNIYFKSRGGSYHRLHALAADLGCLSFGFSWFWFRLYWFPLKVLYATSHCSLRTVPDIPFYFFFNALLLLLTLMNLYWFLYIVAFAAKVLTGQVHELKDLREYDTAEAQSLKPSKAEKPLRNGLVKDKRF
Description: Ceramide synthase assay, HPLC-based with fluorescent NBD-dihydrosphingosine, C18:0-CoA; extracts of HEK293 cells expressing human CerS1. In kind it is biochemical. On the set-up: host or cells: HEK293. Particulars: selectivity. The procedure:
Ceramide synthase assays were carried out using an HPLC-based assay with a fluorescent NBD-dihydrosphingosine substrate. All cell lines used for these assays were originally sourced from ATCC. […] Cells were sonicated in a Diagenode Bioruptor sonicating bath for 5 min, after which cell extracts were cleared by centrifugation at 800 × g for 10 min. Protein concentration in the supernatant was assayed using the bicinchoninic acid (BCA) assay, and the supernatant stored at −80 °C. COS cells were infected with lentiviral constructs expressing murine CerS1, 2, or 5, then homogenised as described above.
The reaction buffer consisted of 20 mM Hepes pH 7.4, 25 mM KCl, 2 mM MgCl2, 0.5 mM dithiothreitol, 0.1% fatty acid free BSA, 10 μM NBD-dihydrosphingosine and 50 μM fatty acid free BSA. C18:0-CoA was used as the fatty acyl substrate for CerS1 and CerS4; C24:1-CoA for CerS2; and C16:0-CoA for CerS5 and CerS6. All reactions were run in triplicate. […] The reaction mixture was transferred to a glass HPLC vial with 300 μL fused glass insert (Thermo Fisher Scientific) and NBD-dihydroceramide reaction products were analysed on a Thermo Scientific Surveyor HPLC connected to a Shimadzu RF-10AXL fluorescent detector (set to gain of 3). […]

The test system of data set [2] is SkM.
Data set [3] concerns HEK293 cells. Description: Non-viable cells by propidium iodide staining and flow cytometry, 72 h. The format is cell-based. As for the experimental part:
Lipid levels are expressed as a percentage of vehicle control levels. […] All graphs show combined data from two independent experiments, each with 3 (a) or 4 (b-d) separate cell treatments, mean ± SEM. Statistical significance in (b-d) was determined by t-tests adjusted for multiple comparisons, comparing all lipids (22 lipids tested in total) at each concentration to the control group; ^+P < 0.05; ^#P < 0.01; *P < 0.001

The subject of data set [4] is SkM. Description: Lipidomic profiling of skeletal muscle (quadriceps) of mice on chow or HFD. In kind it is in vivo. Particulars: 5 mg/kg daily, 4–6 weeks. The text has this: Male C57BL6/J mice were obtained from the Animal Resources Centre in Perth (WA, Australia). […] Treatment was commenced at the same time as mice were randomised to dietary groups. The experiments were approved by the UNSW animal care and ethics committee (ACEC 15/48B), and followed guidelines issued by the National Health and Medical Research Council of Australia.
Lipids were extracted from frozen tissue samples or cells using a two-phase procedure with methyl-tert-butyl ether (MTBE)/methanol/water (10:3:2.5, v/v/v)[67]. Frozen tissue samples (~20 mg) were homogenized in 0.2 mL methanol containing 0.01% butylated hydroxytoluene (BHT), using a Precellys 24 homogenizer and Cryolys cooling unit (Bertin Technologies) with CK14 (1.4-mm ceramic) beads. […]
Lipidomic profiling was performed on a QExactive Plus mass spectrometer with heated electrospray ionization (HESI) probe and a Dionex UltiMate 2000 LC pump (Thermo Fisher Scientific). […] Data were then exported to an Excel spreadsheet for normalisation of each lipid to its class-specific internal standard, and lipid concentrations were calculated relative to the internal standard.

The subject of data set [5] is SkM. The settings on record: 4 weeks.

For the molecule `C[C@@](N)(CO)CCc1ccc(OCc2ccc(Cl)c(Cl)c2)cc1` [P053, (S)-2-amino-4-(4-(3,4-dichlorobenzyloxy)phenyl)-2-methylbutan-1-ol], in data set [1], the “IC50's for CerS2, CerS4, CerS5 and CerS6 relative to CerS1” value is recorded as “at least one order of magnitude higher”. Also, the citrate synthase activity result in data set [2] was “increased activity”. Moreover, the βHAD activity entry in data set [2] (P = 0.06) is “increased activity”. Moreover, the “concentrations inhibiting C18 ceramide synthesis relative to those required to promote apoptosis” value in data set [3] is “at least one order of magnitude lower”. The “18:1/18:0 and 18:2/18:0 ceramide in SkM” value in data set [4] is recorded as “significantly reduced”. The “C24 ceramide synthase activity in SkM” value in data set [5] is recorded as “not associated with increased C24 ceramide synthase activity”.
